# Earlier results as cited in patent US12428399B2, “Non-hygroscopic crystalline salts of a pyrazole compound, and pharmaceutical compositions and use thereof” (Yissum Research Development Company of the Hebrew …, priority 2019, dated 2025).
# Protein sequences, listed by entry. Tags and fused reporters are not part of them.
# UniProt P50613, whole entry, species assumed: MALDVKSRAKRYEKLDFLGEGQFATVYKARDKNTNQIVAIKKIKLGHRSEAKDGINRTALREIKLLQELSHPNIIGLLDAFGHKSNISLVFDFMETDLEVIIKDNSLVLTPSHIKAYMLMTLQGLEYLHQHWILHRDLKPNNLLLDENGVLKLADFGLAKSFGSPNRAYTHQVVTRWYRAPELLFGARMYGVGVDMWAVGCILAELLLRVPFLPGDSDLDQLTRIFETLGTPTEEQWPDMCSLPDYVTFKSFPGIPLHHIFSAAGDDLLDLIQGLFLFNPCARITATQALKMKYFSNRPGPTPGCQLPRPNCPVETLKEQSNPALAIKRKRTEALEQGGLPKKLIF
# UniProt P50750, whole entry, species assumed: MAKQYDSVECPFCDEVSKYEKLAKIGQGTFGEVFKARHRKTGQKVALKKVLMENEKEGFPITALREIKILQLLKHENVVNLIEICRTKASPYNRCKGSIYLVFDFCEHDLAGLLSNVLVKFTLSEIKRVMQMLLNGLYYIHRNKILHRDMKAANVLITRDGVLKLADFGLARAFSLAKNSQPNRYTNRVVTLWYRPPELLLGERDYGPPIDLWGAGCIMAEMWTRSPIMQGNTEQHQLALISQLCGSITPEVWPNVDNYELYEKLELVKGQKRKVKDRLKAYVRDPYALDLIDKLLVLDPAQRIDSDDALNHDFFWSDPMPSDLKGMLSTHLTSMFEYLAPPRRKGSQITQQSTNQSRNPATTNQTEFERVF
# How the values were obtained:
# CDK7 = CDK7 (Homo sapiens, UniProt P50613); settings: cited from earlier work
# CDK9 = CDK9 (Homo sapiens, UniProt P50750); settings: cited from earlier work
structure (smiles),measurement,setting,value
"Cn1ncc(-c2nc(N[C@H]3CC[C@H](N)CC3)ncc2Cl)c1CC1CC1 [the Compound, (1r,4r)-N^1-(5-chloro-4-(5-(cyclopropylmethyl)-1-methyl-1H-pyrazol-4-yl)pyrimidin-2-yl)cyclohexane-1,4-diamine]",CDK7 inhibition,CDK7,inhibitor
same,CDK9 inhibition,CDK9,inhibitor
